Source: US20110217202A1, “ACTIVE OXYGEN DISINFECTION SYSTEM AND USE THEREOF” (priority 2010, published 2011)

System: S. marcescens
Assay: Photosensitizer with or without H2O2 or PHMB, rate of kill, S. marcescens
Format: cell-based
Conditions: red LED 630 nm, about 10^5 cfu/ml

CN(C)c1ccc2nc3ccc(=[N+](C)C)cc-3sc2c1 [MB, Methylene Blue]
Log reduction in bacterial viability (10 μg/mL with 0.0005% PHMB, about 15 minutes): 5-6 Log | Log reduction in bacterial viability (10 μg/mL with 0.003% H2O2, one hour): 5-6 Log
